Molecular target: T1, JAK1 (Homo sapiens, UniProt P23458)
T1 construct: purchased DiscoveRx (LeadHunter Discover Services, KINOMEscan)
Assay: KINOMEscan enzyme binding assay (DiscoveRx), JAK1
Conditions: read-out: Dissociation Constant JAK1
Procedure: Kinase enzyme binding activities of compounds disclosed herein may be determined using a proprietary assay which measures active site-directed competition binding to an immobilized ligand (Fabian, M. A., et al., Nature Biotechnol. 2005, 23, 329-336). These assays may be conducted by DiscoveRx (formerly Ambit; San Diego, Calif.). The percentage inhibition produced by incubation with a test compound may be calculated relative to the non-inhibited control.

Chains of the proteins cited; added tags and fusions are not shown. Residues count along the entry.
UniProt P23458, 866-1154 limits assumed: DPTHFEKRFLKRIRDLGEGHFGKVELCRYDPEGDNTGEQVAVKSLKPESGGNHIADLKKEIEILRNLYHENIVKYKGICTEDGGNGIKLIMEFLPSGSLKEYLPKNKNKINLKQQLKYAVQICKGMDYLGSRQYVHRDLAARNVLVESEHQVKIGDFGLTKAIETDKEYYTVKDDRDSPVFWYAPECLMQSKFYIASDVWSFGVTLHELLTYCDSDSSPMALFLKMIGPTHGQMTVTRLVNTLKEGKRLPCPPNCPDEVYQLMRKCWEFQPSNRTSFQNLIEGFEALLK

For CCc1cc(O)c(F)cc1-c1ccc2c(-c3nc4c([nH]3)CCN(C(=O)c3cnc(N5CCCCC5)cn3)C4)n[nH]c2c1 [Reference Compound, reference compound], the Kd was 2.7 nM.
